Test results reported in PubChem BioAssay (NCI).
Some of these compounds have results that are not shown, active ones among them.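 Briefly, cells in 96-well plates were exposed to five compound concentrations for 48 h, and endpoints were estimated by linear interpolation. At the GI50, growth is halved. TGI marks complete inhibition of growth.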

What was measured:
Test in all cases: DTP human tumour cell line panel, 48 h
[1] = system: LOX IMVI melanoma
[2] = system: MDA-MB-435
[3] = system: COLO 205 colon
[4] = system: A549 NSCLC
[5] = system: CCRF-CEM leukemia
[6] = system: HCT-116 colon
[7] = system: HOP-92 NSCLC
[8] = system: HCT-15 colon
[9] = system: SF-539 CNS
[10] = system: RPMI-8226 leukemia
[11] = system: U251 CNS
[12] = system: NCI-H460 lung
[13] = system: RXF 393 renal
[14] = system: KM12 colon
[15] = system: SK-MEL-2 melanoma
[16] = system: SNB-19 CNS
[17] = system: HCC-2998 colon
[18] = system: SN12C renal
[19] = system: SW-620 colon
[20] = system: NCI-H522 lung
[21] = system: OVCAR-3 ovarian
[22] = system: UACC-62 melanoma
[23] = system: DU-145 prostate
[24] = system: HT29 colon
[25] = system: UACC-257 melanoma
[26] = system: TK-10 renal
[27] = system: 786-0 renal
[28] = system: K-562 leukemia
[29] = system: MDA-N
[30] = system: SK-MEL-5 melanoma
[31] = system: HL-60(TB) leukemia
[32] = system: IGROV1 ovarian
[33] = system: SF-295 CNS
[34] = system: SNB-75 CNS
[35] = system: EKVX NSCLC
[36] = system: HS 578T breast
[37] = system: SK-MEL-28 melanoma
[38] = system: NCI-H226 lung
[39] = system: A498 renal
[40] = system: ACHN renal
[41] = system: T-47D breast
[42] = system: OVCAR-4 ovarian
[43] = system: PC-3 prostate
[44] = system: MCF7 breast
[45] = system: HOP-62 NSCLC
[46] = system: MDA-MB-231 breast
[47] = system: OVCAR-5 ovarian
[48] = system: SR leukemia
[49] = system: NCI/ADR-RES ovarian
[50] = system: NCI-H322M lung
[51] = system: MOLT-4 leukemia
[52] = system: SF-268 CNS
[53] = system: MALME-3M melanoma
[54] = system: NCI-H23 lung
[55] = system: OVCAR-8 ovarian
[56] = system: M14 melanoma
[57] = system: CAKI-1 renal

CC/C=C\C(O)(C(=O)OC1CN2CCC1CC2)C1CCCC1 (centres undefined) gave a GI50 [1] of over 100 µM, a TGI [1] of over 100 µM and a GI50 [2] of over 100 µM. The TGI [2] was over 100 µM, the GI50 [3] was over 100 µM and the TGI [3] was over 100 µM. For the same molecule, the GI50 [4] was over 100 µM, the TGI [4] was over 100 µM and the GI50 [5] was over 100 µM. The TGI [5] was over 100 µM, the GI50 [6] was over 100 µM and the TGI [6] was over 100 µM. The GI50 [7] was 68.8 µM, the TGI [7] was over 100 µM and the GI50 [8] was over 100 µM. The TGI [8] was over 100 µM, the GI50 [9] was over 100 µM and the TGI [9] was over 100 µM. It also gave a GI50 [10] of over 100 µM, a TGI [10] of over 100 µM and a GI50 [11] of over 100 µM. The TGI [11] was over 100 µM, the GI50 [12] was over 100 µM and the TGI [12] was over 100 µM. The GI50 [13] was over 100 µM, the TGI [13] was over 100 µM and the GI50 [14] was over 100 µM. For the same molecule, the TGI [14] was over 100 µM, the GI50 [15] was over 100 µM and the TGI [15] was over 100 µM. The GI50 [16] was over 100 µM, the TGI [16] was over 100 µM and the GI50 [17] was over 100 µM. The TGI [17] was over 100 µM, the GI50 [18] was over 100 µM and the TGI [18] was over 100 µM. The GI50 [19] was over 100 µM, the TGI [19] was over 100 µM and the GI50 [20] was over 100 µM. The TGI [20] was over 100 µM, the GI50 [21] was over 100 µM and the TGI [21] was over 100 µM. For the same molecule, the GI50 [22] was over 100 µM, the TGI [22] was over 100 µM and the GI50 [23] was over 100 µM. The TGI [23] was over 100 µM, the GI50 [24] was over 100 µM and the TGI [24] was over 100 µM. For the same molecule, the GI50 [25] was over 100 µM, the TGI [25] was over 100 µM and the GI50 [26] was over 100 µM. For the same molecule, the TGI [26] was over 100 µM, the GI50 [27] was over 100 µM and the TGI [27] was over 100 µM. The GI50 [28] was over 100 µM, the TGI [28] was over 100 µM and the GI50 [29] was over 100 µM. For the same molecule, the TGI [29] was over 100 µM, the GI50 [30] was over 100 µM and the TGI [30] was over 100 µM. For the same molecule, the GI50 [31] was over 100 µM, the TGI [31] was over 100 µM and the GI50 [32] was over 100 µM. The TGI [32] was over 100 µM, the GI50 [33] was over 100 µM and the TGI [33] was over 100 µM. It also gave a GI50 [34] of 72.4 µM, a TGI [34] of over 100 µM and a GI50 [35] of over 100 µM. For the same molecule, the TGI [35] was over 100 µM, the GI50 [36] was over 100 µM and the TGI [36] was over 100 µM. The GI50 [37] was over 100 µM, the TGI [37] was over 100 µM and the GI50 [38] was 48.2 µM. It also gave a TGI [38] of over 100 µM, a GI50 [39] of over 100 µM and a TGI [39] of over 100 µM. For the same molecule, the GI50 [40] was over 100 µM, the TGI [40] was over 100 µM and the GI50 [41] was over 100 µM. It also gave a TGI [41] of over 100 µM, a GI50 [42] of over 100 µM and a TGI [42] of over 100 µM. It also gave a GI50 [43] of over 100 µM, a TGI [43] of over 100 µM and a GI50 [44] of over 100 µM. The TGI [44] was over 100 µM, the GI50 [45] was over 100 µM and the TGI [45] was over 100 µM. For the same molecule, the GI50 [46] was over 100 µM, the TGI [46] was over 100 µM and the GI50 [47] was over 100 µM. The TGI [47] was over 100 µM, the GI50 [48] was over 100 µM and the TGI [48] was over 100 µM. The GI50 [49] was over 100 µM, the TGI [49] was over 100 µM and the GI50 [50] was over 100 µM. For the same molecule, the TGI [50] was over 100 µM, the GI50 [51] was over 100 µM and the TGI [51] was over 100 µM. For the same molecule, the GI50 [52] was over 100 µM, the TGI [52] was over 100 µM and the GI50 [53] was over 100 µM. It also gave a TGI [53] of over 100 µM, a GI50 [54] of over 100 µM and a TGI [54] of over 100 µM. It also gave a GI50 [55] of over 100 µM, a TGI [55] of over 100 µM and a GI50 [56] of over 100 µM. For the same molecule, the TGI [56] was over 100 µM, the GI50 [57] was over 100 µM and the TGI [57] was over 100 µM.
